# Assay results as given in patent publication US20150079168A1 (Keryx Biopharmaceuticals, Inc., priority 2012, published 2015).
# Assay: Intrinsic dissolution rate
# Conditions: Table 6
substance,measurement,value
ferric citrate [High Purity Ferric Citrate],Mean Intrinsic Dissolution Rates,2.64 mg/cm^2/min
